Measurements from ChEMBL document CHEMBL2062462, “Thiophene bioisosteres of spirocyclic σ receptor ligands: relationships between substitution pattern and σ receptor affinity” (J Med Chem, 2012).

Assay: Selectivity index, ratio of Ki for guinea pig brain sigma1 receptor to Ki for rat liver sigma2 receptor

c1ccc(CN2CCC3(CC2)OCCc2sccc23)cc1
Ratio Ki: 42
